{"sequences": {"note": "By UniProt entry, the sequences of proteins in these tests, tags left out.", "UniProt P47746, whole entry": "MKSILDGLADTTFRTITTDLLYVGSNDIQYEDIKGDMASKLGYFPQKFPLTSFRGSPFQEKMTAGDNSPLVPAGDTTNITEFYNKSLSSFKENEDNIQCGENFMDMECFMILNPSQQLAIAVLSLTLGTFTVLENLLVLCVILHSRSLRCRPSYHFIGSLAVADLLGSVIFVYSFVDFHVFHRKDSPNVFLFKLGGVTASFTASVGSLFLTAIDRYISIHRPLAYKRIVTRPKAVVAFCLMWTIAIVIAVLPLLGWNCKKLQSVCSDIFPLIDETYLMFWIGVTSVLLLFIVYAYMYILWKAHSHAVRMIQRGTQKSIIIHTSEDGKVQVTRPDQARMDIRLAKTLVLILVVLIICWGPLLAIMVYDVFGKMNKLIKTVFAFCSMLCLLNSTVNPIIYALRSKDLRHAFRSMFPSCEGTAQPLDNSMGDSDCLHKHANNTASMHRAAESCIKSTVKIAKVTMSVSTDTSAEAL"}, "source": "patent US20160209428A1", "about": "“DIAGNOSTIC AND PREDICTIVE METABOLITE PATTERNS FOR DISORDERS AFFECTING THE BRAIN AND NERVOUS SYSTEM” (THE REGENTS OF THE UNIVERSITY OF CALIFORNIA, priority 2013, published 2016)", "origin": "cited, not measured here", "molecular_target": "CB1R (Mus musculus, UniProt P47746)", "conditions": "CB1R antagonist; cited from earlier work", "data": [{"smiles": "Cc1c(C(=O)NN2CCCCC2)nn(-c2ccc(Cl)cc2Cl)c1-c1ccc(Cl)cc1", "note": "[rimonabant]", "values": [{"measurement": "symptoms in the Fragile X model", "value": "improve several symptoms"}]}]}
